The target of the experiment is rat EP1 receptor (Rattus norvegicus, UniProt P70597). The experiment is described as follows: Test for confirmation of EP1 receptor antagonism (inhibition of PGE2-induced increase in intracellular calcium concentration). The conditions noted are these: rat EP1 receptor-expressing COS-1 cells; prostaglandin E2 10 nM; fluorescent calcium indicator, FDSS 7000. How it is done:
Test for Confirmation of EP1 Receptor Antagonism
(1) Preparation of Rat EP1 Expression Vector
Using Rat Kidney BD Marathon-Ready cDNA (Nippon Becton Dickinson Company, Ltd.) as a template, a forward primer shown in (SEQ ID NO:1), and a reverse primer shown in (SEQ ID NO:2), a first run of PCR was carried out using KOD-Plus-Ver 2.0 (Toyobo Co., Ltd.). Further, using this amplification product as a template, a forward primer shown in (SEQ ID NO:3), and a reverse primer shown in (SEQ ID NO:4), a second run of PCR was carried out in the same manner. The amplification product obtained by the second run of PCR was incorporated into a vector (pcDNA3.1 D/V5-His-TOPO (registered trademark), Invitrogen Japan K. K.). By a conventional method, the vector containing this amplification product was introduced to E. coli (One Shot TOP 10 Competent Cells, Invitrogen Corporation) to transform. This transformed E. coli was cultured in an LB agar medium for one day. After the culture, colonies were selected and cultured in an LB liquid medium containing 50 μg/mL of ampicillin. After the culture, the vector was purified using a QIAprep Spin Miniprep Kit (Qiagen K. K.). […]

Amino acid sequences for entries named in this document (tags omitted).
UniProt P70597, whole entry: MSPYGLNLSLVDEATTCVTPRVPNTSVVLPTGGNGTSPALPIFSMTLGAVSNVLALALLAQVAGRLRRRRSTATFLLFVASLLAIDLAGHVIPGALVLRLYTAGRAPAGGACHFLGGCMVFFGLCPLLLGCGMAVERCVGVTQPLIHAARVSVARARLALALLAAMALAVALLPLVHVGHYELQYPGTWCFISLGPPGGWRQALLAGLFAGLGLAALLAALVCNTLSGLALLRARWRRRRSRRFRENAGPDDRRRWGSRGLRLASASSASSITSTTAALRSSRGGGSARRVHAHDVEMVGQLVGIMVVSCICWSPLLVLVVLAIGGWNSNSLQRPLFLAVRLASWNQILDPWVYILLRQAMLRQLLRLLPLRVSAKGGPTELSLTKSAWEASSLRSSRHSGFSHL

Each structure is given as a SMILES string.

Broadly, the IC50 is the concentration that gives 50% inhibition.

As to `COc1cc2[nH]c(C(C)(C)C)c(Cc3cccc(-c4nnn[nH]4)n3)c2cc1Cl`, the IC50 came out at 19 nM.
